Measurements: article PMC12467033, “Exploring the Inhibitory Potential of Six Porphyrin Compounds Against α-Amylase and α-Glucosidase Linked to Diabetes” (Biomolecules, 2025)

System: HepG2 cells
Experiment: MTT cytotoxicity assay
Type: cell-based, human
Conditions: 24 h
Procedure: The cytotoxicity of six porphyrin compounds against human hepatocellular carcinoma HepG2 cells was evaluated using the MTT assay. HepG2 cells were seeded into 96-well plates at a density of 5000 cells per well and cultured for 24 h at 37 °C in a 5% CO2 incubator. Then, 100 µL of sample solutions at various concentrations (50, 100, and 200 µg/mL) was added to the experimental wells, with blank control wells and solvent control wells also included. The cells were further incubated for 24 h. After incubation, 10 µL of MTT solution (5 mg/mL) was added to each well, and the plates were incubated for another 4 h. Subsequently, 100 µL of Formazan solubilization solution was added to each well, followed by gentle mixing. The plates were returned to the incubator and maintained until complete dissolution of Formazan crystals was observed under a microscope. The absorbance at 570 nm was measured using a microplate reader (Meigu Molecular Instrument Company, Shanghai, China), and the survival rate of HepG2 cells was calculated.(12) Cell viability=As-Ab/Ac-Ab×100%
In the formula, As represents the absorbance of the sample well, Ac denotes the absorbance of the blank control well (without the drug), and Ab refers to the absorbance of the solvent control well (devoid of both cells and the drug).

iron (III) meso-tetra (4-carboxyphenyl) porphyrin chloride [Fe–TCPP]
cytotoxicity (in words) (HepG2, 50 μg/mL): no significant harm
cell viability (HepG2, 100 μg/mL): 60.40 ± 5.69%
cell viability (survival rate) (HepG2, 200 μg/mL): 55.41 ± 0.93%
